For this series, the system named is p53 Quenchbody. Conditions: by comparison to a standard curve measured in bulk condition.

Consider `CC(C)C[C@H](NC(=O)[C@H](CC(=O)O)NC(=O)[C@H](CO)NC(=O)[C@H](Cc1ccccc1)NC(=O)[C@@H](NC(=O)[C@H](CCC(=O)O)NC(=O)[C@H](CCC(N)=O)NC(=O)[C@H](CO)NC(=O)[C@H](CC(C)C)NC(=O)[C@@H]1CCCN1C(=O)[C@@H]1CCCN1C(=O)[C@@H](N)CCC(=O)O)[C@@H](C)O)C(=O)N[C@@H](Cc1c[nH]c2ccccc12)C(=O)N[C@@H](CCCCN)C(=O)N[C@@H](CC(C)C)C(=O)N[C@@H](CC(C)C)C(=O)N1CCC[C@H]1C(=O)N[C@@H](CCC(=O)O)C(=O)N[C@@H](CC(N)=O)C(=O)N[C@@H](CC(N)=O)C(=O)O` [human p53 peptide], for which the “average peptide concentration inside the microdroplets” value (after 3 h incubation with nanodroplets) is ~ 28 nM. Moreover, the “peptide concentration inside the microdroplets” value (after a total of 24 h incubation with nanodroplets) amounted to 34 nM.

These data come from publication PMC10452409, “Nanodroplet-Based Reagent Delivery into Water-in-Fluorinated-Oil Droplets” (Biosensors, 2023).
